Source: publication PMC3078584 (Analytical biochemistry, 2010)

Target: T1, GST-Cbl(TKB) (Homo sapiens, UniProt P22681)
T1 sequence (P22681 47-351 limits assumed): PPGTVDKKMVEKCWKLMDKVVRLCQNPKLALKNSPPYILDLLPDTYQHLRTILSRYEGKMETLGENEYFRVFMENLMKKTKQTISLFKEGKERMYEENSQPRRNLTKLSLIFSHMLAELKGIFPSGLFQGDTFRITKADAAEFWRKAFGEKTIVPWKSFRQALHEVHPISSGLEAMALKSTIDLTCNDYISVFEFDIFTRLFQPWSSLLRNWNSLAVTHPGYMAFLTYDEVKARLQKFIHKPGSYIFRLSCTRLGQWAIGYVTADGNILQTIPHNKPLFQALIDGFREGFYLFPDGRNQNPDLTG
Assay: Fluorescence polarization direct binding of labeled ZAP70 peptide to GST-Cbl

CC(C)C[C@H](NC(=O)[C@@H](NC(=O)CCNC(=O)c1ccc2c(c1)C(=O)OC21c2ccc(O)cc2Oc2cc(O)ccc21)[C@@H](C)O)C(=O)N[C@@H](CC(N)=O)C(=O)N[C@@H](CO)C(=O)N[C@@H](CC(=O)O)C(=O)NCC(=O)N[C@@H](Cc1ccc(OP(=O)(O)O)cc1)C(=O)N[C@H](C(=O)N1CCC[C@H]1C(=O)N[C@@H](CCC(=O)O)C(=O)N1CCC[C@H]1C(=O)N[C@@H](C)C(N)=O)[C@@H](C)O [ZAP70 peptide 1, Flu-βA-TLNSDGpYTPEPA-CONH2]
Kd: 1200 ± 200 nM
